{"source": "paper PMC12575352", "key": {"[1]": {"conditions": "rats, 1.75 μg, Observed; ref YK. et al., 2024; cited from earlier work"}, "[2]": {"conditions": "humans, 0.1 mg, Observed; ref Lim et al., 2012; cited from earlier work"}, "[3]": {"conditions": "cited from earlier work; for CL: humans"}, "[4]": {"conditions": "Observed (experimental); ref PubChem; cited from earlier work"}, "plasma proteins": {"test_system": "plasma proteins", "conditions": "Observed, cited from earlier work"}, "[5]": {"assay": "Reported clinical pharmacokinetics after intravenous sufentanil, alfentanil, remifentanil (literature)", "conditions": "for CL: humans, intravenous 2.4 μg/kg (170 μg), estimated as dose/AUC from literature data, ref Bower and Hull (1982)"}, "[6]": {"conditions": "10 surgical patients, intravenous 5 μg/kg, ref Bovill et al., 1984"}}, "note": "Read-outs that look alike come from different tables or passages of the source. Only a part of the results on these compounds is given; other tests are left out."}
{"molecule": "CCC(=O)N(c1ccccc1)C1CCN(CCc2ccccc2)CC1", "values": [{"measurement": "AUC0-inf", "setting": "[1]", "result": "3,552 pg·h/mL"}, {"measurement": "AUC0-t", "setting": "[1]", "result": "2,272 pg·h/mL"}, {"measurement": "AUC0-inf", "setting": "[2]", "result": 1.5959, "unit": "ng·h/mL"}, {"measurement": "AUC0-t", "setting": "[2]", "result": 1.5306, "unit": "ng·h/mL"}]}
{"molecule": "CCC(=O)N(c1ccccc1)C1(COC)CCN(CCn2nnn(CC)c2=O)CC1", "values": [{"measurement": "T1/2", "setting": "[3]; Observed, healthy volunteers, intravenous 2.4 μg/kg (170 μg), ref Bower and Hull (1982)", "result": 72.6, "unit": "min"}, {"measurement": "logP", "setting": "[4]", "result": 2.16}, {"measurement": "Fup", "setting": "plasma proteins; alfentanil study, ref Bower and Hull (1982)", "result": 12.75, "unit": "%"}, {"measurement": "CL", "setting": "[5]", "result": 31.44, "unit": "L/h"}, {"measurement": "CL", "setting": "[5]; listed as alfentanil", "result": "approximately 31.44 L/h"}]}
{"molecule": "CCC(=O)N(c1ccccc1)C1(C(=O)OC)CCN(CCC(=O)OC)CC1", "values": [{"measurement": "CL", "setting": "[3]; Observed, intravenous 5 μg/kg, ref Westmoreland et al. (1993)", "result": 184.5, "unit": "L/h"}, {"measurement": "T1/2", "setting": "[3]; Observed, surgical patients, intravenous 5 μg/kg, ref Westmoreland et al. (1993), listed as remifentanil", "result": 14.4, "unit": "min"}, {"measurement": "T1/2", "setting": "[3]; surgical patients, intravenous 2 μg/kg, converted to hours, ref Westmoreland et al., 1993", "result": 10.2, "unit": "min"}, {"measurement": "T1/2", "setting": "[3]; surgical patients, intravenous 2 μg/kg, ref Westmoreland et al., 1993", "result": 10.19, "unit": "min"}, {"measurement": "T1/2", "setting": "[3]; surgical patients, intravenous 5 μg/kg, ref Westmoreland et al., 1993", "result": 14.35, "unit": "min"}, {"measurement": "T1/2", "setting": "[3]; surgical patients, intravenous 15 μg/kg, converted to hours, ref Westmoreland et al., 1993", "result": 15.6, "unit": "min"}, {"measurement": "T1/2", "setting": "[3]; surgical patients, intravenous 15 μg/kg, ref Westmoreland et al., 1993", "result": 15.67, "unit": "min"}, {"measurement": "T1/2", "setting": "[3]; surgical patients, intravenous 30 μg/kg, converted to hours, ref Westmoreland et al., 1993", "result": 20.4, "unit": "min"}, {"measurement": "T1/2", "setting": "[3]; surgical patients, intravenous 30 μg/kg, ref Westmoreland et al., 1993", "result": 20.47, "unit": "min"}, {"measurement": "logP", "setting": "[4]", "result": 1.4}]}
{"molecule": "CCC(=O)N(c1ccccc1)C1(COC)CCN(CCc2cccs2)CC1", "values": [{"measurement": "mean half-life (T1/2)", "setting": "[3]; [6]", "result": "164 ± 22", "unit": "min"}, {"measurement": "mean steady-state volume of distribution (Vdss)", "setting": "[3]; [6]", "result": "1.7 ± 0.2", "unit": "L/kg"}, {"measurement": "T1/2", "setting": "[3]; Observed, humans (10 surgical patients), intravenous 5 μg/kg, ref Bovill et al. (1984), listed as sufentanil", "result": "164 ± 22.2", "unit": "min"}, {"measurement": "CL", "setting": "[3]; Observed, intravenous 5 μg/kg, 3F 7M, ref Bovill et al. (1984)", "result": 54.01, "unit": "L/h"}, {"measurement": "logP", "setting": "[4]", "result": 3.95}, {"measurement": "Fup", "setting": "plasma proteins; sufentanil study, ref Bovill et al. (1984)", "result": 7.5, "unit": "%"}, {"measurement": "absolute Vdss", "setting": "[5]; calculated from literature Vdss with standard body weight of 70 kg, ref Bovill et al., 1984", "result": "119 ± 14", "unit": "L"}]}
